Earlier results as cited in paper PMC10818746, “Inhibition of CYP1A1 Alleviates Colchicine-Induced Hepatotoxicity” (Toxins, 2024).

Columns and labels:
[1] = tested on: liver; conditions: cited from earlier work
[2] = tested on: liver; conditions: clinical case; cited from earlier work

COc1cc2c(c(OC)c1OC)-c1ccc(OC)c(=O)cc1[C@@H](NC(C)=O)CC2 [colchicine, Colchicine]
high dose that can cause liver damage in mice [1]: 4 mg/kg
large doses at which liver damage occurred (case report) [2]: > 0.5 mg/kg
